Data: patent publication US20160114057A1, “MODULAR PROTEIN DRUG CONJUGATE THERAPEUTIC” (ZYMEWORKS INC., priority 2013, published 2016)

How the values were obtained:
HER2 = biological target: T1, HER2 (Homo sapiens, UniProt P04626); test: SPR binding to target antigen HER2; conditions: immobilized antigen, 25 C, read-out: KD (Ave)
T1 construct: reaction with the purified antigen in 10 mM NaOAc at pH 4.5
Protocol: The ability of the ADCs to bind to the target antigen HER2 was assessed using SPR (surface plasmon resonance) binding. Briefly, binding by SPR was measured using the Bio-Rad ProteOn XPR36 instrument. Runs were carried out using 1×PBS running buffer at a temperature of 25 C. The target surface is generated using a GLC sensorchip via amine coupling kit (EDC/sNHS) activation followed by reaction with the purified antigen in 10 mM NaOAc at pH 4.5 until approximately 1000 RU signal is observed indicative of antigen immobilization. Remaining active groups are quenched by injection of enthanolamine. A 3-fold dilution series of the ADC with a blank buffer control is simultaneously injected at 50 mL/min for 120 s with a 20-minute dissociation, resulting in a set of binding sensograms with a buffer reference for each. A pulse of 0.85% phosphoric acid regenerates the antigen surface on the SPR chip.

[1] = Differential scanning calorimetry (thermal stability); format: physicochemical; conditions: DSC

## v5110
HER2
  Kd: 0.6 nM

## v9992: Recombinant domain III of human serum albumin, purchased from Albumin Bioscience
[1]
  unfolding transition (in words): broad unfolding transition
